Results reported in article PMC5249144, “T Cell Subset and Stimulation Strength-Dependent Modulation of T Cell Activation by Kv1.3 Blockers” (PLoS ONE, 2017).

Protein sequences, listed by entry. Tags and fused reporters are not part of them.
UniProt P22001, whole entry: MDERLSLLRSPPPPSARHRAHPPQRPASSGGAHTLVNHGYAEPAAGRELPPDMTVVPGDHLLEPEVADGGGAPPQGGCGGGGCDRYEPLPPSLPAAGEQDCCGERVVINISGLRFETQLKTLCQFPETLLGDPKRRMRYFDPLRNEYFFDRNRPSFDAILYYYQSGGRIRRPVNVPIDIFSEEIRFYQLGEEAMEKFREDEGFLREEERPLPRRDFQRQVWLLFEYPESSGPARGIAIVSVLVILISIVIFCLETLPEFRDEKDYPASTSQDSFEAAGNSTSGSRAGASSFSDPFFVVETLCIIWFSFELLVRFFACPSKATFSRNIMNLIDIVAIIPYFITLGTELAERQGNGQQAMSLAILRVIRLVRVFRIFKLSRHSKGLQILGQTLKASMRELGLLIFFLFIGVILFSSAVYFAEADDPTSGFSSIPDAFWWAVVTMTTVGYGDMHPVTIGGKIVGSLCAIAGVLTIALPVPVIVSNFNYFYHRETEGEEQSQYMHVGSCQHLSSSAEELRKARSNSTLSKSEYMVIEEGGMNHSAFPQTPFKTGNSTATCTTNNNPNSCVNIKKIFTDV

Legend:
[1] = biological target: T1, human Kv1.3 channels on transfected CHO cells (Homo sapiens, UniProt P22001); experiment: Manual patch clamp, recombinant human Kv1.3 in stably transfected CHO cells; assay type: cell-based; conditions: manual whole-cell patch clamp, room temperature (22–24°C), step to +40mV (some +20 or +30mV), holding –80mV, 0.1% BSA, pH 7.4
T1 construct: expressed in transfected cells

[2] = tested on: House dust mite-specific T cell; assay type: cell-based, human; conditions: 3 h
Experimental: (§1) T cells were cultured in 96-well plates (Thermo Scientific) with 200μl medium/well. Culture medium was RPMI-1640 medium supplemented with 2% human A/B serum (Valley Biomedical Prod & Srv Inc.), 2 mM glutamine, 1mM sodium pyruvate, 10mM HEPES, 1mM MEM nonessential amino acid solution, and 100 U/ml each of penicillin G and streptomycin (all culture reagents from Life Technologies except for human serum). T cells were pre-treated with Kv1.3 blockers and other inhibitors for 30 minutes before stimulation. All assays were conducted with samples in duplicates or triplicates.
For T cell pan-activation with beads coated with anti-CD3 and anti-CD28 (eBioscience), T cells at 2 x 10^5 cells/well in 96-well flat-bottom plates were stimulated overnight with anti-CD3 and anti-CD28 coated beads (Miltenyi Biotec) at 2:1 bead/cell ratio or as indicated. For T cell pan-activation with anti-CD3, T cells at 5 x 10^4 cells/well in 96-well U-bottom plates were stimulated for 2 days with 1ng/ml of anti-CD3 in the presence of mitomycin C treated autologous PBMC at 1:1 T cell/PBMC ratio. […]
(§2) Proliferation of T cells was measured by overnight pulsing with 1μCi/well of ^3H-thymidine (Perkin Elmer). […] Filter plates were soaked with scintillant (Perkin Elmer) and radioactivity was counted using a Topcount (Packard).

[3] = tested on: CD4 Tcm cell; conditions: 3 h
Excerpt: (§3) Human PBMC were purified from donor blood by Ficoll-Paque (GE Healthcare) density centrifugation. CD4 or CD8 T cells were purified from human PBMC by negative selection using human CD4 or CD8 T cell isolation kit (Miltenyi Biotec) respectively. Naïve or memory CD4 T cells were isolated from CD4 T cells by negative selection using human naïve or memory CD4 T cell isolation kit (Miltenyi Biotec) respectively. Central and effector memory CD4 T cells were separated from memory CD4 T cells using biotinylated anti-CCR7 (BD Biosciences) and streptavidin coated magnetic beads (Miltenyie Biotec). Cells after treatment with antibodies and magnetic beads were purified with autoMACS (Miltenyi Biotec).
as §1, with “triplicates. […]” for “triplicates.”
as §2
(§4) In order to further understand the activity profile of Kv1.3 blockers on T cells, we compared the effects of Kv1.3 blockers on primary naïve, central memory and effector memory CD4 T cells. […] Purified T cells were activated with anti-CD3 in the presence of mitomycin C treated PBMC and the effects of Kv1.3 blockers on T cell proliferation were monitored and compared to cyclosporine A and BTP2.

[4] = tested on: CD4 naïve cell; conditions: 3 h
Excerpt: as §3
as §1, with “triplicates. […]” for “triplicates.”
as §2, §4

[5] = tested on: CD4 Tem cell; conditions: 3 h
Excerpt: as §3
as §1, with “triplicates. […]” for “triplicates.”
as §2, §4

[6] = biological target: T2, endogenous Kv1.3 in human CD4 T cells (Homo sapiens, UniProt P22001); experiment: Manual patch clamp, endogenous Kv1.3 currents in human primary CD4 T cells; assay type: cell-based; conditions: OsK1 on endogenous Kv1.3, human primary CD4 T cells, manual whole-cell patch clamp, room temperature, step to +40mV, holding –80mV, pH 7.4
T2 construct: OsK1 potency on endogenous Kv1.3 in human CD4 T cells; endogenous in cells; host or cells: human primary CD4 T cells purified from donor PBMC
Experimental: The potency of OsK1 peptide against voltage-gated currents in human primary CD4 T cells and CHO cells stably transfected with recombinant human Kv1.3 was measured in a manual patch clamp assay, as previously described. Briefly, T cells or transfected CHO cells were plated onto glass coverslips in a bath on the stage of an inverted microscope and perfused (approximately 1ml/min) with extracellular solution of the following composition: 137mM NaCl, 2mM CaCl2, 5.4mM KCl, 1mM MgCl2, 5mM glucose, and 10mM HEPES, 0.1% bovine serum albumin, pH 7.4. […] All recordings were made at room temperature (22–24°C) using a Multiclamp 700A amplifier and pClamp 9 software (Axon Instruments). Outward potassium currents were measured using the whole-cell configuration of the patch-clamp technique. […]
CD4 T cells were purified from human PBMC as described in the T cell purification section. […] Expression levels of CD25 and CD69 on activated T cells were monitored in flow cytometer after staining with fluorescent dye conjugated specific antibodies (eBiosciences). […]
To investigate the role of Kv1.3 in T cell activation, we tested different Kv1.3 blockers in our T cell assays. […] The IC50 values of different Kv1.3 blockers determined on CHO transfected cells were similar to those published in other studies.

[7] = tested on: CD4 T cell; experiment: Thapsigargin stimulated CD4 T cell IL-2 production; assay type: cell-based, human; conditions: thapsigargin (10μM or other concentrations, 20 hours), ELISA, read-out: IL-2, Potency (IC50)
Experimental: (§5) Heparinized human blood was diluted with an equal volume of IMDM medium (Life Technologies) supplemented with 2% normal human A/B serum and plated at 200μl/well in 96-well plates for thapsigargin (Alomone) stimulation. CD4 T cells were plated at 5 x 10^5 cells/well in 96-well plates with 200μl medium/well. Blood or T cell samples were pre-treated with blockers or inhibitors for 30 minutes prior to stimulation with thapsigargin at 10μM or other concentrations as indicated for 20 hours. Cytokines in culture supernatants were measured as described in cytokine detection section.
Cytokines in supernatants collected from blood or T cell cultures were measured with ELISA or electrochemiluminescent assays. IL-2 was measured by ELISA using the human IL-2 Quantikine Kit (R&D Systems). Other cytokines were detected using multiplex human cytokine electro-chemiluminescent kit (Meso Scale Discovery).

[8] = tested on: CD4 T cell; experiment: Thapsigargin stimulated CD4 T cell proliferation; assay type: cell-based, human; conditions: thapsigargin (10μM or other concentrations, 20 hours)
Experimental: as §5
Proliferation of T cells was measured by overnight pulsing with 1μCi/well of ^3H-thymidine (Perkin Elmer). Cells with incorporated radioactive thymidine were harvested onto glass fiber filter plates (Perkin Elmer). Filter plates were soaked with scintillant (Perkin Elmer) and radioactivity was counted using a Topcount (Packard).

With `CC[C@H](C)[C@@H]1NC(=O)[C@H](CCCCN)NC(=O)[C@@H](NC(=O)[C@H](CCCCN)NC(=O)[C@@H](NC(=O)[C@H](CC(N)=O)NC(=O)[C@@H](NC(=O)[C@@H](NC(=O)[C@@H](NC(=O)CN)C(C)C)[C@@H](C)CC)[C@@H](C)CC)C(C)C)CSSC[C@@H]2NC(=O)[C@H](CCCCN)NC(=O)CNC(=O)[C@H](Cc3ccccc3)NC(=O)[C@H](CCCNC(=N)N)NC(=O)[C@H](CCSC)NC(=O)CNC(=O)[C@H](C)NC(=O)[C@H](CCCCN)NC(=O)[C@H](CCCCN)NC(=O)[C@@H]3CSSC[C@@H](C(=O)N[C@H](C(=O)N4CCC[C@H]4C(=O)N[C@@H](CCCCN)C(=O)O)[C@@H](C)O)NC(=O)[C@H](Cc4c[nH]cn4)NC(=O)[C@H](CSSC[C@H](NC(=O)[C@H](CCC(N)=O)NC(=O)[C@H](CCCNC(=N)N)NC(=O)[C@H](CO)NC1=O)C(=O)N[C@@H](CC(C)C)C(=O)N[C@@H](CCC(=O)O)C(=O)N1CCC[C@H]1C(=O)N3)NC(=O)[C@H](CCCCN)NC(=O)CNC(=O)[C@H](CC(N)=O)NC(=O)[C@H](CCSC)NC2=O` [OsK1] the IC50 [1] was 0.019 ± 0.004 nM, the IC50 [2] was 0.0416 ± 0.0261 nM and the “Proliferation, Efficacy (%Inhibition)” value ([2]; 10 μg/ml) was 58.9 ± 4.3%. The IC50 [3] was 0.0956 ± 0.0418 nM, the IC50 [4] was 0.776 ± 0.179 nM and the IC50 [5] was 0.0511 ± 0.0057 nM. For the same compound, the IC50 [6] was 0.0162 ± 0.0023 nM, the IC50 [7] was 0.0068 ± 0.0031 nM and the “Proliferation, Efficacy (%Inhibition)” value [8] was 35.5 ± 3.7%. It also gave an IC50 ([8]; read-out: Proliferation, Potency (IC50)) of 0.04 ± 0.0028 nM.
